Source: patent US11472838B2, “Inhibitors of blood coagulation factor XIII” (Zedira GmbH, priority 2018, dated 2022)

The chains behind the UniProt entries cited, without tags or fusion partners.
UniProt P21980, whole entry: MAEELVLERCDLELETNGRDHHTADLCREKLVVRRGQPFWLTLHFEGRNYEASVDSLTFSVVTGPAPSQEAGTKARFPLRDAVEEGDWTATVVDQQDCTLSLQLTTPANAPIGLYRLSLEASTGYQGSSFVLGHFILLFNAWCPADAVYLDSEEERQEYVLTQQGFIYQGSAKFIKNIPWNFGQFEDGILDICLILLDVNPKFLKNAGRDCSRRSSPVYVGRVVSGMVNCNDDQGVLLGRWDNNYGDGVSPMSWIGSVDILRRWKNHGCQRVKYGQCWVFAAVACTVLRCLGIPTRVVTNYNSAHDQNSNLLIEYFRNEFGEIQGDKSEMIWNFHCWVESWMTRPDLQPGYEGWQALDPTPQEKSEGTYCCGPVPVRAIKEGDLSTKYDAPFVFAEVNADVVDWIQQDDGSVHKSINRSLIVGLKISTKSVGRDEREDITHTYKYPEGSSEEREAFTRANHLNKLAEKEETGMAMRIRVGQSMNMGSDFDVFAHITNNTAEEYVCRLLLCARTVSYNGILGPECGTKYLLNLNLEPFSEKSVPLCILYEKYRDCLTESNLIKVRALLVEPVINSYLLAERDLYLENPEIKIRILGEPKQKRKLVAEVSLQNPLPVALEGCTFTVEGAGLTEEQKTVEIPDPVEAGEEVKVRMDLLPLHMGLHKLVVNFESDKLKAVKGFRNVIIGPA

Target: TG2 (Homo sapiens (Human), UniProt P21980)
Experiment: Inhibitory activity against TG2 (isopeptidase assay), Tables 3 and 4
Type: biochemical
Conditions: TG2 versus FXIII, Table 4

Structure (SMILES) | Selectivity
C=C1C[C@@H](C(=O)N[C@@H](CC(C)C)C(=O)N[C@H](C(N)=O)C2CCCCC2)N(C(=O)[C@@H](NC(=O)[C@H](CC/C=C/C(=O)OCC)NC(=O)c2ccc([N+](=O)[O-])cc2C(=O)O)C(C)(C)C)C1 [Compound 42a] | 9.5 and 12.1

Tested on: not listed separately
Experiment: Stability of compounds in plasma (HPLC)
Conditions: 37° C., over a period of 2 hours

Structure (SMILES) | recovery in plasma determined by HPLC
CCOC(=O)/C=C/CC[C@H](NC(=O)c1cc([N+](=O)[O-])ccc1C(=O)O)C(=O)N[C@H](C(=O)N1CC(=O)C[C@H]1C(=O)N[C@H](C(=O)N[C@H](C(N)=O)C1CCCCC1)C1CCCCC1)C(C)(C)C | > 75%
COC(=O)/C=C/CC[C@H](NC(=O)c1cc([N+](=O)[O-])ccc1C(=O)O)C(=O)N[C@H](C(=O)N1CC=C[C@H]1C(=O)NC(C(=O)N[C@H](C(N)=O)C1CCCCC1)C1CCCCC1)C(C)(C)C (stereo partly shown) | > 75%
COC(=O)/C=C/CC[C@H](NC(=O)c1cc([N+](=O)[O-])ccc1C(=O)O)C(=O)N[C@H](C(=O)N1CC(F)(F)C[C@H]1C(=O)N[C@H](C(=O)N[C@H](C(N)=O)C1CCCCC1)C1CCCCC1)C(C)(C)C | > 75%
COC(=O)/C=C/CC[C@H](NC(=O)c1cc([N+](=O)[O-])ccc1C(=O)O)C(=O)N[C@H](C(=O)N1C[C@H](OCc2ccccc2)C[C@H]1C(=O)N[C@H](C(=O)N[C@H](C(N)=O)C1CCCCC1)C1CCCCC1)C(C)(C)C | > 75%
COC(=O)/C=C/CC[C@H](NC(=O)c1cc([N+](=O)[O-])ccc1C(=O)O)C(=O)N[C@H](C(=O)N1CCC[C@@H](C(=O)N[C@H](C(=O)N[C@H](C(N)=O)C2CCCCC2)C2CCCCC2)C1)C(C)(C)C | > 75%
COC(=O)/C=C/CC[C@H](NC(=O)c1cc([N+](=O)[O-])ccc1C(=O)O)C(=O)N[C@H](C(=O)N1CC[C@H]1C(=O)N[C@H](C(=O)N[C@H](C(N)=O)C1CCCCC1)C1CCCCC1)C(C)(C)C | > 75%
COC(=O)/C=C/CC[C@H](NC(=O)c1cc([N+](=O)[O-])ccc1C(=O)O)C(=O)N[C@H](C(=O)N1C[C@@H](F)C[C@H]1C(=O)N[C@H](C(=O)N[C@H](C(N)=O)C1CCCCC1)C1CCCCC1)C(C)(C)C | > 75%
COC(=O)/C=C/CC[C@H](NC(=O)c1cc([N+](=O)[O-])ccc1C(=O)O)C(=O)N[C@H](C(=O)N1C[C@@H](Oc2ccccc2)C[C@H]1C(=O)N[C@H](C(=O)N[C@H](C(N)=O)C1CCCCC1)C1CCCCC1)C(C)(C)C | > 75%
COC(=O)/C=C/CC[C@H](NC(=O)c1cc([N+](=O)[O-])ccc1C(=O)O)C(=O)N[C@H](C(=O)N1C[C@H](F)C[C@H]1C(=O)N[C@H](C(=O)N[C@H](C(N)=O)C1CCCCC1)C1CCCCC1)C(C)(C)C | > 75%
COC(=O)/C=C/CC[C@H](NC(=O)c1cc([N+](=O)[O-])ccc1C(=O)O)C(=O)N[C@H](C(=O)N1CCCC[C@H]1C(=O)N[C@H](C(=O)N[C@H](C(N)=O)C1CCCCC1)C1CCCCC1)C(C)(C)C | > 75%
COC(=O)/C=C/CC[C@H](NC(=O)c1cc([N+](=O)[O-])ccc1C(=O)O)C(=O)N[C@H](C(=O)N1CC(=O)C[C@H]1C(=O)N[C@H](C(=O)N[C@H](C(N)=O)C1CCCCC1)C1CCCCC1)C(C)(C)C | > 75%
C=C1C[C@@H](C(=O)N[C@H](C(=O)N[C@H](C(N)=O)C2CCCCC2)C2CCCCC2)N(C(=O)[C@@H](NC(=O)[C@H](CC/C=C/C(=O)OC)NC(=O)c2cc([N+](=O)[O-])ccc2C(=O)O)C(C)(C)C)C1 | > 75%
COC(=O)/C=C/CC[C@H](NC(=O)c1cc([N+](=O)[O-])ccc1C(=O)O)C(=O)N[C@@H](CC1CC1)C(=O)N1CC(=O)C[C@H]1C(=O)N[C@H](C(=O)N[C@H](C(N)=O)C1CCCCC1)C1CCCCC1 | > 75%
COC(=O)/C=C/CC[C@H](NC(=O)c1cc([N+](=O)[O-])ccc1C(=O)O)C(=O)N[C@H](C(=O)N1COC[C@H]1C(=O)N[C@H](C(=O)N[C@H](C(N)=O)C1CCCCC1)C1CCCCC1)C(C)(C)C | > 75%
COC(=O)/C=C/CC[C@H](NC(=O)c1cc([N+](=O)[O-])ccc1C(=O)O)C(=O)N[C@H](C(=O)N1C[C@H](O)C[C@H]1C(=O)N[C@H](C(=O)N[C@H](C(N)=O)C1CCCCC1)C1CCCCC1)C(C)(C)C | > 75%
COC(=O)/C=C/CC[C@H](NC(=O)c1cc([N+](=O)[O-])ccc1C(=O)O)C(=O)N[C@H](C(=O)N1C[C@H]2[C@@H]([C@H]1C(=O)N[C@H](C(=O)N[C@H](C(N)=O)C1CCCCC1)C1CCCCC1)C2(C)C)C(C)(C)C | > 75%
COC(=O)/C=C/CC[C@H](NC(=O)c1cc([N+](=O)[O-])ccc1C(=O)O)C(=O)N[C@H](C(=O)N1C[C@H](Oc2ccccc2)C[C@H]1C(=O)N[C@H](C(=O)N[C@H](C(N)=O)C1CCCCC1)C1CCCCC1)C(C)(C)C | > 75%
COC(=O)/C=C/CC[C@H](NC(=O)c1cc([N+](=O)[O-])ccc1C(=O)O)C(=O)N[C@H](C(=O)N1C2CCCCC2C[C@H]1C(=O)NC(C(=O)N[C@H](C(N)=O)C1CCCCC1)C1CCCCC1)C(C)(C)C (stereo partly shown) | > 75%

Where “and” joins values, the source holds several entries; their conditions need not be identical. Identical values can stand only once.
